Experimental data reported in patent publication US10363320B2, “Conjugate comprising oxyntomodulin and an immunoglobulin fragment, and use thereof” (HANMI SCIENCE CO., LTD, priority 2011, dated 2019).

Sequences of proteins named here, by UniProt entry; tags and fusion partners are left off. Residues count along the entry.
UniProt P43220, 24-463: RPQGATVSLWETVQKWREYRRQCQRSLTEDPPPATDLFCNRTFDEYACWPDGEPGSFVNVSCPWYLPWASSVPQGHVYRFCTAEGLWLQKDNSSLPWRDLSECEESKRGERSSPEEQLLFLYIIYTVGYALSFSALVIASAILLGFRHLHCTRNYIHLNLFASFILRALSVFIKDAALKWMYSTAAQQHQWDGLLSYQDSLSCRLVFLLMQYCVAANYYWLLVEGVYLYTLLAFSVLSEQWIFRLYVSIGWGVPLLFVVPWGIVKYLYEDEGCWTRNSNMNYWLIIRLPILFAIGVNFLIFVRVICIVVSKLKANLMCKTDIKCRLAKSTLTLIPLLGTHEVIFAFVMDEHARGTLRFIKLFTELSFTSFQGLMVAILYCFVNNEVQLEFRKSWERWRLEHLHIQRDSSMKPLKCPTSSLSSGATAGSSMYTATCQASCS
UniProt P47871, 26-477: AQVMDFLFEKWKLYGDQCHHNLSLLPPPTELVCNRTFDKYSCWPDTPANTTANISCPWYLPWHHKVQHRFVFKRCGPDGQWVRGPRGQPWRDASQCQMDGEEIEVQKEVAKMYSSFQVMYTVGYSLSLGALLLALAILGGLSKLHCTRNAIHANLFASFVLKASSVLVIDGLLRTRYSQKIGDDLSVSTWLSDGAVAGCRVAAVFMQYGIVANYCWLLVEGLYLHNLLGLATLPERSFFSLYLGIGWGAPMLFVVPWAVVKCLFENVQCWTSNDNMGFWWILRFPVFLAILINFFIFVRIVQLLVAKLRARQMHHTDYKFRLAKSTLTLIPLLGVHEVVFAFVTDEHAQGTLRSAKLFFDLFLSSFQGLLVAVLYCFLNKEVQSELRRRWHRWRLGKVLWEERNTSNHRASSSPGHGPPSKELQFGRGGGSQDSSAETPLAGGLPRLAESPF

Columns and labels:
[1] = Changes in food intake in ob/ob mouse; format: in vivo; conditions: ob/ob mice fasted for 16 hours; 1 mg/kg; food intake for 2 hours (FIG. 1)
Protocol: In order to measure in vivo therapeutic activity of oxyntomodulin derivatives, changes in food intake by administration of oxyntomodulin derivatives were examined in ob/ob mouse using native oxyntomodulin as a control.
Specifically, obese diabetic ob/ob mice, commonly used to test the efficacies of therapeutic agents for obesity and diabetes, were fasted for 16 hours, and administered with 1 or 10 mg/kg of oxyntomodulin, or 0.02, 0.1, 1 or 10 mg/kg of the oxyntomodulin derivative of SEQ ID NO. 2. Then, food intake was examined for 2 hours (FIG. 1). FIG. 1 is a graph showing changes in food intake according to administration dose of oxyntomodulin or oxyntomodulin derivative.

[2] = target: T1, human GLP-1 receptor (Homo sapiens, UniProt P43220); assay: cAMP response in CHO cell line expressing human GLP-1 receptor (CHO/GLP-1R); format: cell-based
T1 construct: host or cells: CHO DG44
Protocol: The PCR product was cloned into the known animal cell expression vector x0GC/dhfr to prepare a recombinant vector x0GC/GLP1R.
CHO DG44 cell line cultured in DMEM/F12 (10% FBS) medium was transfected with the recombinant vector x0GC/GLP1R using LIPOFECTAMINE® (INVITROGEN®, USA), and cultured in a selection medium containing 1 mg/mL G418 and 10 nM methotraxate.
(§1) The cultured cells were washed with KRB buffer and suspended in 40 ml of KRB buffer containing 1 mM IBMX, and left at room temperature for 5 minutes. […] Then, 20 mL of cell lysis buffer was added for cell lysis, and the cell lysates were applied to a cAMP assay kit (Molecular Device, USA) to measure cAMP concentrations. EC50 values were calculated therefrom, and compared to each other.
(§2) Each of the cultured transformants was washed with KRB buffer and suspended in 40 ml of KRB buffer containing 1 mM IBMX, and left at room temperature for 5 minutes. […] Then, 20 ml of cell lysis buffer was added for cell lysis, and the cell lysates were applied to a cAMP assay kit (Molecular Device, USA) to measure cAMP concentrations using a Victor (PERKIN ELMER®, USA). EC50 values were calculated therefrom, and compared to each other (Table 3).

[3] = target: T2, human glucagon receptor (Homo sapiens, UniProt P47871); assay: cAMP response in CHO cell line expressing human glucagon receptor (CHO/GCGR); format: cell-based
T2 construct: host or cells: CHO DG44
Protocol: The PCR product was cloned into the known animal cell expression vector x0GC/dhfr to prepare a recombinant vector x0GC/GCGR.
CHO DG44 cell line cultured in DMEM/F12 (10% FBS) medium was transfected with the recombinant vector x0GC/GCGR using LIPOFECTAMINE®, and cultured in a selection medium containing 1 mg/mL G418 and 10 nM methotraxate.
as §1, §2

With `CC[C@H](C)[C@H](NC(=O)[C@H](CC(N)=O)NC(=O)[C@H](CC(N)=O)NC(=O)[C@H](CCCNC(=N)N)NC(=O)[C@H](CC(N)=O)NC(=O)[C@H](CCCNC(=N)N)NC(=O)[C@H](CCCCN)NC(=O)[C@@H](NC(=O)[C@H](CC(N)=O)NC(=O)[C@H](CCSC)NC(=O)[C@H](CC(C)C)NC(=O)[C@H](Cc1c[nH]c2ccccc12)NC(=O)[C@H](CCC(=O)O)NC(=O)[C@@H](NC(=O)[C@H](Cc1ccccc1)NC(=O)[C@H](CC(C)C)NC(=O)[C@H](CCCNC(=N)N)NC(=O)[C@@H](NC(=O)[C@H](C)NC(=O)[C@H](CCC(=O)O)NC(=O)[C@H](CCC(=O)O)NC(=O)[C@H](CC(=O)O)NC(=O)[C@H](CC(C)C)NC(=O)[C@H](Cc1ccc(O)cc1)NC(=O)[C@H](CCCCN)NC(=O)[C@H](CO)NC(=O)[C@H](Cc1ccc(O)cc1)NC(=O)[C@H](CC(=O)O)NC(=O)[C@H](CO)NC(=O)[C@@H](NC(=O)[C@H](Cc1ccccc1)NC(=O)[C@@H](NC(=O)CNC(=O)[C@H](CCC(N)=O)NC(=O)[C@H](CO)NC(=O)Cc1c[nH]cn1)[C@@H](C)O)[C@@H](C)O)C(C)C)[C@@H](C)CC)[C@@H](C)O)C(=O)N[C@@H](C)C(=O)O` [SEQ ID NO. 2] the “inhibitory effects on food intake” value [1] was “more excellent inhibitory effects on food intake than administration of 10 mg/kg of oxyntomodulin”.

`CSCC[C@H](NC(=O)[C@H](CC(C)C)NC(=O)[C@H](Cc1c[nH]c2ccccc12)NC(=O)[C@H](CCC(N)=O)NC(=O)[C@@H](NC(=O)[C@H](Cc1ccccc1)NC(=O)[C@H](CCC(=O)O)NC(=O)[C@@H]1CCCCNC(=O)CC[C@H](NC(=O)[C@H](CC(=O)O)NC(=O)[C@H](CC(C)C)NC(=O)[C@H](Cc2ccc(O)cc2)NC(=O)[C@H](CCCCN)NC(=O)[C@H](CO)NC(=O)[C@H](Cc2ccc(O)cc2)NC(=O)[C@H](CC(=O)O)NC(=O)[C@H](CO)NC(=O)[C@@H](NC(=O)[C@H](Cc2ccccc2)NC(=O)[C@@H](NC(=O)CNC(=O)[C@H](CCC(N)=O)NC(=O)C(C)(C)NC(=O)Cc2c[nH]cn2)[C@@H](C)O)[C@@H](C)O)C(=O)N[C@@H](CCCCN)C(=O)N[C@@H](CCCNC(=N)N)C(=O)N[C@@H](C)C(=O)N1)C(C)C)C(=O)N[C@@H](CC(N)=O)C(=O)N[C@H](C(=O)N[C@@H](CS)C(=O)O)[C@@H](C)O` [SEQ ID NO. 32] showed an EC50 [2] of 14.2 nM and an EC50 [3] of 17.3 nM.
